Measurements reported in patent US20200339537A1, “NOVEL COMPOUND AS INHIBITOR AGAINST BINDING OF PF34 PROTEIN TO NEDD4-1 PROTEIN AND USE THEREOF” (ENHANCEDBIO INC., priority 2017, published 2020).

Biological target: T1, binding between p34 protein and NEDD4-1 protein (Homo sapiens, UniProt P46934+Q9UHV2)
T1 construct: FLAG or 6xHis (known only from the detection antibodies)
T1 sequence (P46934 1-1319): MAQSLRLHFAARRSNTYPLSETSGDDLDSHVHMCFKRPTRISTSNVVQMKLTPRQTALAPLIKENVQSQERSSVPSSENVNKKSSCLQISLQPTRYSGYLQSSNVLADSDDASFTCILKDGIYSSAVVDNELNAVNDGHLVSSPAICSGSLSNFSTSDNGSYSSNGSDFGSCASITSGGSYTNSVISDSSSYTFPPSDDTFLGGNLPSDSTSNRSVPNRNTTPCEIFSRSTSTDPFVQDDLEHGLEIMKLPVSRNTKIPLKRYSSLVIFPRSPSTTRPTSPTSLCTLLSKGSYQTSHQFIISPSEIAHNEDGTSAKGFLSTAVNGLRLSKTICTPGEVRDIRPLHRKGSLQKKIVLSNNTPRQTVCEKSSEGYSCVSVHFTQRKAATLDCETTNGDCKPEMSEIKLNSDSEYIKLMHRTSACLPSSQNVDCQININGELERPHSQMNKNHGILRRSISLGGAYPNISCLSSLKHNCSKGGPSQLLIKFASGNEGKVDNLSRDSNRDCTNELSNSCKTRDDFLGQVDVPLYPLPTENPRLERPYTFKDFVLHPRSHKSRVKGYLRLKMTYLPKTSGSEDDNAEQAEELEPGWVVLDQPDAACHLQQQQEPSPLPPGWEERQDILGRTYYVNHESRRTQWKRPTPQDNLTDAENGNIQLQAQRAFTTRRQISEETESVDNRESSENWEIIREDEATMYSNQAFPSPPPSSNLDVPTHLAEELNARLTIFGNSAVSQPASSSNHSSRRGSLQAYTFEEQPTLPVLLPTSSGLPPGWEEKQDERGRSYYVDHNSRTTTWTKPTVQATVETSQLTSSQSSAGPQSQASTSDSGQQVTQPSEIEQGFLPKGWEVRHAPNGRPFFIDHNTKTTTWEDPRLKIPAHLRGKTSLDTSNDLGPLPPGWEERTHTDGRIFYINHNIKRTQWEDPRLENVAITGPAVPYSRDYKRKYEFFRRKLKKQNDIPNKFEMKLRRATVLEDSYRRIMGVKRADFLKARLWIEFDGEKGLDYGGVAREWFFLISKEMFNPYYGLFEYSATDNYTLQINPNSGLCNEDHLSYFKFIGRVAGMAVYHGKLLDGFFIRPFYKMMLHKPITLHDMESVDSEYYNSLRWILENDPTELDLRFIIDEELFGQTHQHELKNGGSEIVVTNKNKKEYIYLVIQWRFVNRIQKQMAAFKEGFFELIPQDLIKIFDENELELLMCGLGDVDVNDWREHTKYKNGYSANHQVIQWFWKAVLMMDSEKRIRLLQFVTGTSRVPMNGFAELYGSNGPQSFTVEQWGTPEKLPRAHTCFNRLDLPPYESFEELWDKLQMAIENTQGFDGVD
T1 sequence (Q9UHV2 1-236): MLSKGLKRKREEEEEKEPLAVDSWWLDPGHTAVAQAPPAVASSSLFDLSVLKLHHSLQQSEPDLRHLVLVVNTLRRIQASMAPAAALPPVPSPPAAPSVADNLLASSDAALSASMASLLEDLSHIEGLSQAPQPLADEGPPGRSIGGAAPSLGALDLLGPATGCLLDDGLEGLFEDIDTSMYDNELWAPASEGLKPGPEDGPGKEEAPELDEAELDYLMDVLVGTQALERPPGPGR
Assay: Inhibitory activity on binding between p34 and NEDD4-1, FRET (HTRF) assay
Details: pH 7.4, compound 10 μM; 1×PBS pH 7.4, 0.1% BSA, 2% DMSO; 384-well
Protocol: Inhibitory activity of the compound on binding between p34 and NEDD4-1 was evaluated using p34 protein and NEDD4-1 protein based on the HTRF technology developed by Cisbio. In this assay, a fluorescence resonance energy transfer (FRET) signal was measured in the presence of terbium-labeled anti-FLAG antibody and d2-labeled anti-6XHis antibody. Experiments were performed in 384-well plates under a condition of 1×PBS pH 7.4, 0.1% BSA, and 2% DMSO. A background signal was measured in the absence of the p34-NEDD4-1 proteins, and a non-inhibiting signal was measured with addition of only a solvent (2% DMSO). Then, the compound to be evaluated was applied to give a final concentration of 10 μM. Subsequently, inhibitory activity of the compound on p34-NEDD4-1 was calculated in %.

- inhibition at 10 µM: 30.2%
Structure (SMILES): O=C(NCc1nc2cc(F)c(F)cc2[nH]1)N1CCN(Cc2c[nH]c3ccc(Cl)cc23)CC1 [Example 62, 4-((5-Chloro-1H-indol-3-yl)methyl)-N-((5,6-difluoro-1H-benzo[d]imidazol-2-yl)methyl)piperazine-1-carboxamide]
